Values quoted from earlier work as cited in paper PMC7606641 (Biochemical pharmacology, 2020).

Conditions: hormones crossing the BBB; cited from earlier work

## insulin
  Percentage of injected dose entering the brain (%Inj/g): 0.046%
